## CycPeptMPDB entries from one study

PAMPA measures passive passage through an artificial lipid membrane. P is given in units of 10^-6 cm/s (from log10 values with two decimals); larger means faster passage.

The entry for CCCC[C@@H]1NC(=O)[C@@H](CC(C)C)N(C)C(=O)CN(CC2CCCCC2)C(=O)[C@H](C)NC(=O)CN(CC)C(=O)[C@H]2CCCN2C1=O lists PAMPA 12 × 10^-6 cm/s. CCCCCN1CC(=O)N[C@@H](CC(C)C)C(=O)N[C@@H](CCCC)C(=O)N2CCC[C@@H]2C(=O)N(CCCOC(C)C)CC(=O)N[C@@H](C)C1=O is reported with PAMPA 1.4 × 10^-6 cm/s. CCCC[C@@H]1NC(=O)[C@@H](CC(C)C)N(C)C(=O)CN(CC2CCOCC2)C(=O)[C@@H](C)NC(=O)CN(CC)C(=O)[C@@H]2CCCN2C1=O has PAMPA 0.021 × 10^-6 cm/s. For CCCC[C@@H]1NC(=O)[C@@H](CC(C)C)N(C)C(=O)CN(CC2CCOCC2)C(=O)[C@H](Cc2ccccc2)NC(=O)CN(CC)C(=O)[C@H]2CCCN2C1=O the data give PAMPA 6.8 × 10^-6 cm/s. CCCC[C@@H]1NC(=O)[C@@H](CC(C)C)NC(=O)CN(CC2CCOCC2)C(=O)[C@H](Cc2ccccc2)NC(=O)CN(CCCOC(C)C)C(=O)[C@@H]2CCCN2C1=O has PAMPA 2.8 × 10^-6 cm/s. Listed for CCCC[C@@H]1NC(=O)[C@@H](CC(C)C)NC(=O)CN(CC2CCOCC2)C(=O)[C@@H](C)NC(=O)CN(CCCOC(C)C)C(=O)[C@@H]2CCCN2C1=O: PAMPA 0.032 × 10^-6 cm/s.

CCCC[C@@H]1NC(=O)[C@@H](CC(C)C)N(C)C(=O)CN(CC2CCOCC2)C(=O)[C@@H](C)NC(=O)CN(CCCOC(C)C)C(=O)[C@H]2CCCN2C1=O is reported with PAMPA 0.22 × 10^-6 cm/s. Listed for CCCCCN1CC(=O)N(C)[C@@H](CC(C)C)C(=O)N[C@@H](CCCC)C(=O)N2CCC[C@@H]2C(=O)N(CCCOC(C)C)CC(=O)N[C@H](C)C1=O: PAMPA 1.6 × 10^-6 cm/s. CCCC[C@@H]1NC(=O)[C@H](CC(C)C)NC(=O)CN(CC2CCCCC2)C(=O)[C@@H](Cc2ccccc2)NC(=O)CN(CC)C(=O)[C@@H]2CCCN2C1=O is reported with PAMPA 5.2 × 10^-6 cm/s. Listed for CCCC[C@@H]1NC(=O)[C@H](CC(C)C)NC(=O)CN(CC2CCCCC2)C(=O)[C@H](C)NC(=O)CN(Cc2ccc3c(c2)OCO3)C(=O)[C@H]2CCCN2C1=O: PAMPA 7.9 × 10^-6 cm/s. CCCC[C@@H]1NC(=O)[C@H](CC(C)C)NC(=O)CN(CC2CCCCC2)C(=O)[C@@H](C)NC(=O)CN(Cc2ccc3c(c2)OCO3)C(=O)[C@H]2CCCN2C1=O has PAMPA 2.8 × 10^-6 cm/s. For CCCC[C@@H]1NC(=O)[C@@H](CC(C)C)NC(=O)CN(CC2CCCCC2)C(=O)[C@@H](C)NC(=O)CN(CCCOC(C)C)C(=O)[C@H]2CCCN2C1=O the data give PAMPA 3.6 × 10^-6 cm/s.

The entry for CCCCCN1CC(=O)N(C)[C@H](CC(C)C)C(=O)N[C@@H](CCCC)C(=O)N2CCC[C@H]2C(=O)N(Cc2ccc3c(c2)OCO3)CC(=O)N[C@H](Cc2ccccc2)C1=O lists PAMPA 3.7 × 10^-6 cm/s. CCCC[C@@H]1NC(=O)[C@@H](CC(C)C)NC(=O)CN(CC2CCOCC2)C(=O)[C@@H](C)NC(=O)CN(Cc2ccc3c(c2)OCO3)C(=O)[C@H]2CCCN2C1=O is reported with PAMPA 1.3 × 10^-6 cm/s. CCCC[C@@H]1NC(=O)[C@@H](CC(C)C)N(C)C(=O)CN(CC2CCCCC2)C(=O)[C@@H](C)NC(=O)CN(CC)C(=O)[C@H]2CCCN2C1=O has PAMPA 2.7 × 10^-6 cm/s. The entry for CCCCCN1CC(=O)N(C)[C@H](CC(C)C)C(=O)N[C@@H](CCCC)C(=O)N2CCC[C@@H]2C(=O)N(CC)CC(=O)N[C@@H](C)C1=O lists PAMPA 7.4 × 10^-6 cm/s. Listed for CCCC[C@@H]1NC(=O)[C@H](CC(C)C)N(C)C(=O)CN(CC2CCCCC2)C(=O)[C@H](Cc2ccccc2)NC(=O)CN(Cc2ccc3c(c2)OCO3)C(=O)[C@H]2CCCN2C1=O: PAMPA 0.049 × 10^-6 cm/s.

Extract of 2 entries:

{"smiles": "CCCC[C@@H]1NC(=O)[C@H](CC(C)C)NC(=O)CN(CC2CCCCC2)C(=O)[C@H](C)NC(=O)CN(Cc2ccc3c(c2)OCO3)C(=O)[C@H]2CCCN2C1=O", "PAMPA (10^-6 cm/s)": "7.9"}
{"smiles": "CCCC[C@@H]1NC(=O)[C@@H](CC(C)C)NC(=O)CN(CC2CCOCC2)C(=O)[C@H](Cc2ccccc2)NC(=O)CN(CCCOC(C)C)C(=O)[C@@H]2CCCN2C1=O", "PAMPA (10^-6 cm/s)": "2.8"}

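The data file gives no further conditions (lipid, pH, time, direction or concentration), and values from different papers need not be comparable. The list need not hold all peptides of the study. Peptides that the database sets to -10, its floor, are left out.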

Values of Furukawa et al. 2016, doi:10.1021/acs.jmedchem.6b01246, as listed in CycPeptMPDB.